Experimental data reported in ChEMBL document CHEMBL3425494, “Design, synthesis, and antitumor evaluation of novel histone deacetylase inhibitors equipped with a phenylsulfonylfuroxan module as a nitric oxide donor” (J Med Chem, 2015).
pIC50: −log10 of the molar value.

Protein sequences, listed by entry. Tags and fused reporters are not part of them.
UniProt Q13547, whole entry: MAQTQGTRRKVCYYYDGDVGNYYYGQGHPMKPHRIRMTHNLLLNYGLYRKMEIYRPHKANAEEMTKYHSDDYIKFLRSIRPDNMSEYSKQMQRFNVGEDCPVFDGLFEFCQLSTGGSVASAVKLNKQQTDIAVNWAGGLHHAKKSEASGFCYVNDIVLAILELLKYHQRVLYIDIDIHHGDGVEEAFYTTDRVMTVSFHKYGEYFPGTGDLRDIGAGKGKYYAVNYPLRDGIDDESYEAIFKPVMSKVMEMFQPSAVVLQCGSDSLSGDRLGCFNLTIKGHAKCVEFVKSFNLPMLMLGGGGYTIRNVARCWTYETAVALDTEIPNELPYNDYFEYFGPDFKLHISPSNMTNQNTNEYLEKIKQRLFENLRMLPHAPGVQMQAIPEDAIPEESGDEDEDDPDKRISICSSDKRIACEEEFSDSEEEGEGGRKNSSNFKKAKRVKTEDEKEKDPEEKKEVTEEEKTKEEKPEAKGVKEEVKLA
UniProt Q92769, whole entry: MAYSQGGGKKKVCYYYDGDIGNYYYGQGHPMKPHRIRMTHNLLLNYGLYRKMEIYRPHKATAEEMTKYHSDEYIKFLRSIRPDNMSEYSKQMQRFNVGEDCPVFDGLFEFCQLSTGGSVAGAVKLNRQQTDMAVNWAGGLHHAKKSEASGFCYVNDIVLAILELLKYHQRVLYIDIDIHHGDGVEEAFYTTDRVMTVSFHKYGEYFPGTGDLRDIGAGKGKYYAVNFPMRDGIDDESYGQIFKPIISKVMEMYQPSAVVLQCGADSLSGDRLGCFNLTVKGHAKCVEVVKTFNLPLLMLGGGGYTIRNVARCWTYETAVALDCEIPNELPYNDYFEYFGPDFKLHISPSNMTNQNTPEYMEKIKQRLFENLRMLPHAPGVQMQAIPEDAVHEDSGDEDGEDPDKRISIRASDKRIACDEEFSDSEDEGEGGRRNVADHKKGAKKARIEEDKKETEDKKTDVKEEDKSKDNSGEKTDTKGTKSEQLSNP

Legend:
HEL = experiment: cells; type: functional, cell-based; details: Homo sapiens, 48 h
Histone deacetylase 1 = Histone deacetylase 1 (Homo sapiens, UniProt Q13547); experiment: Inhibition of full length human recombinant HDAC1 expressed in baculovirus using Ac-Leu-GlyLys(Ac)-AMC as substrate after 30 mins by fluorescence assay
Histone deacetylase 2 = Histone deacetylase 2 (Homo sapiens, UniProt Q92769); experiment: biochemical; type: cell-based, S9

pIC50 (HEL): 6.42 | pIC50 (Histone deacetylase 1): 6.62 | pIC50 (Histone deacetylase 2): 6.42
Compound: O=C(CCCCCOc1no[n+]([O-])c1S(=O)(=O)c1ccccc1)NO
